Protein sequences, listed by entry. Tags and fused reporters are not part of them. Residues count along the entry.
UniProt Q92673, 82-2135: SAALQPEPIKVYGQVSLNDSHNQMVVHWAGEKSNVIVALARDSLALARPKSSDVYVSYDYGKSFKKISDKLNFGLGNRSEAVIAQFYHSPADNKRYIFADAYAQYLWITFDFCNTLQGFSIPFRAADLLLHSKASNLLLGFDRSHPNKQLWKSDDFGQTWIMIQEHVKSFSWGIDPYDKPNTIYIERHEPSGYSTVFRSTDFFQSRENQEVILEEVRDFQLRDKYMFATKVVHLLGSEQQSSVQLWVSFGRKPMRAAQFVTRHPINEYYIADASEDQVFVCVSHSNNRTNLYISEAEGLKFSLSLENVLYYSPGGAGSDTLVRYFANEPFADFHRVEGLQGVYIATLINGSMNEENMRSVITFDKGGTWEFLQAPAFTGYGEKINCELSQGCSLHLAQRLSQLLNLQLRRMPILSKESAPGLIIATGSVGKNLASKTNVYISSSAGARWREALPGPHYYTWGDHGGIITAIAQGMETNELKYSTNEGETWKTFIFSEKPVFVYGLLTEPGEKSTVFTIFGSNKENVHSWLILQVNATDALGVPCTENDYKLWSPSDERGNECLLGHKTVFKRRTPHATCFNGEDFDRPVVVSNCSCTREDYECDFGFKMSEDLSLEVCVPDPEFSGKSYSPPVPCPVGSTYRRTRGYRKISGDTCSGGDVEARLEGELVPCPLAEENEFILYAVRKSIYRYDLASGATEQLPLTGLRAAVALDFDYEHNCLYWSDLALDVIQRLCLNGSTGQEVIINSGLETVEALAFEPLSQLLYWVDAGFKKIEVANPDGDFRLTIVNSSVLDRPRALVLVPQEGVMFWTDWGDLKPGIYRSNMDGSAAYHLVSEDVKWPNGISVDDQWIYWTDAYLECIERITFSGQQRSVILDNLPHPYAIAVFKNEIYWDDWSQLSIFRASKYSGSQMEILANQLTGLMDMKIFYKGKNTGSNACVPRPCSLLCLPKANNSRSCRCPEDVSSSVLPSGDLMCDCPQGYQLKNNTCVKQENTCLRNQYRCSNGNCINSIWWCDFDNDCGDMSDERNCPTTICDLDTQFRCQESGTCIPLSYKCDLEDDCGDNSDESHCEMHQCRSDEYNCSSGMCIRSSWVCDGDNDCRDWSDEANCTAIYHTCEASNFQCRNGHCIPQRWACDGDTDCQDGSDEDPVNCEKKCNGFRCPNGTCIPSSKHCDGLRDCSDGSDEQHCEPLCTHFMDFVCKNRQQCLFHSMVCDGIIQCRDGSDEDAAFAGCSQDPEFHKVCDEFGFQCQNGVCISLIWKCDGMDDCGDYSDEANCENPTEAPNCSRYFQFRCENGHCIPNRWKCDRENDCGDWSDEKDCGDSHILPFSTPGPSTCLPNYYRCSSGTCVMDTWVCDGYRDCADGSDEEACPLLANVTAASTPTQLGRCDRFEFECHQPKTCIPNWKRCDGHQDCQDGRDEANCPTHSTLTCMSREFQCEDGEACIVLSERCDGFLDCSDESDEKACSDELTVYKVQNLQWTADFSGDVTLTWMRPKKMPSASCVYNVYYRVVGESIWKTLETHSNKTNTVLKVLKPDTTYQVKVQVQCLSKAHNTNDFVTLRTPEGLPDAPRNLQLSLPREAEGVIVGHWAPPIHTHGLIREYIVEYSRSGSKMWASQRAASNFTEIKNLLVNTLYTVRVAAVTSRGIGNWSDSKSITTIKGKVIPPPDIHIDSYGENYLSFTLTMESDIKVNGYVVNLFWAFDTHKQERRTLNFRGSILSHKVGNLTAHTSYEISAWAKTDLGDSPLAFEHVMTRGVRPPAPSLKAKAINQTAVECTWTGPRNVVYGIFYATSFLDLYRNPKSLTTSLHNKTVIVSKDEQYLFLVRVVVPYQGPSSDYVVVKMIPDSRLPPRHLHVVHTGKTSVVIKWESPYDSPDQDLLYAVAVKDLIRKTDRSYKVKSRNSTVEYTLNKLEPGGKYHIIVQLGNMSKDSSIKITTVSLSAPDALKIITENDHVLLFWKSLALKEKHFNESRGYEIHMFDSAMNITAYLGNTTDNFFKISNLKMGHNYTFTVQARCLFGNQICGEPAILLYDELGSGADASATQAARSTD

In PMC11145553:

Target: Recombinant full-length human SORL1 (sortilin-related receptor 1), residues 82-2135 (human) (UniProt Q92673)
Experiment: SPR; SORL1 (82-2135) amine-coupled to a CM5 chip; tau in single cycle titrations (3.8, 11.5, 34.4, 103.3, 310 nM); 0.15 M NaCl, 0.05% Tween 20, 1 mM CaCl2 pH 7.4; equilibrium analysis (Req from a pseudo-first-order fit); data did not fit a simple 1:1 model

**Q.** Which Kd does the source give for “Phosphorylated 2N4R tau produced in SF9 cells (from UniProt P10636-8 1-441) (natural protein; phosphorylated (hyperphosphorylated forms; intermediate tau phosphorylation state); sites not printed)” here?
**A.** 0.104 µM
